Results taken from patent publication US9493448B2, “Cycloalkane derivatives” (Daiichi Sankyo Company, Limited, priority 2012, dated 2016).

Protein sequences, listed by entry. Tags and fused reporters are not part of them.
UniProt Q15858, whole entry: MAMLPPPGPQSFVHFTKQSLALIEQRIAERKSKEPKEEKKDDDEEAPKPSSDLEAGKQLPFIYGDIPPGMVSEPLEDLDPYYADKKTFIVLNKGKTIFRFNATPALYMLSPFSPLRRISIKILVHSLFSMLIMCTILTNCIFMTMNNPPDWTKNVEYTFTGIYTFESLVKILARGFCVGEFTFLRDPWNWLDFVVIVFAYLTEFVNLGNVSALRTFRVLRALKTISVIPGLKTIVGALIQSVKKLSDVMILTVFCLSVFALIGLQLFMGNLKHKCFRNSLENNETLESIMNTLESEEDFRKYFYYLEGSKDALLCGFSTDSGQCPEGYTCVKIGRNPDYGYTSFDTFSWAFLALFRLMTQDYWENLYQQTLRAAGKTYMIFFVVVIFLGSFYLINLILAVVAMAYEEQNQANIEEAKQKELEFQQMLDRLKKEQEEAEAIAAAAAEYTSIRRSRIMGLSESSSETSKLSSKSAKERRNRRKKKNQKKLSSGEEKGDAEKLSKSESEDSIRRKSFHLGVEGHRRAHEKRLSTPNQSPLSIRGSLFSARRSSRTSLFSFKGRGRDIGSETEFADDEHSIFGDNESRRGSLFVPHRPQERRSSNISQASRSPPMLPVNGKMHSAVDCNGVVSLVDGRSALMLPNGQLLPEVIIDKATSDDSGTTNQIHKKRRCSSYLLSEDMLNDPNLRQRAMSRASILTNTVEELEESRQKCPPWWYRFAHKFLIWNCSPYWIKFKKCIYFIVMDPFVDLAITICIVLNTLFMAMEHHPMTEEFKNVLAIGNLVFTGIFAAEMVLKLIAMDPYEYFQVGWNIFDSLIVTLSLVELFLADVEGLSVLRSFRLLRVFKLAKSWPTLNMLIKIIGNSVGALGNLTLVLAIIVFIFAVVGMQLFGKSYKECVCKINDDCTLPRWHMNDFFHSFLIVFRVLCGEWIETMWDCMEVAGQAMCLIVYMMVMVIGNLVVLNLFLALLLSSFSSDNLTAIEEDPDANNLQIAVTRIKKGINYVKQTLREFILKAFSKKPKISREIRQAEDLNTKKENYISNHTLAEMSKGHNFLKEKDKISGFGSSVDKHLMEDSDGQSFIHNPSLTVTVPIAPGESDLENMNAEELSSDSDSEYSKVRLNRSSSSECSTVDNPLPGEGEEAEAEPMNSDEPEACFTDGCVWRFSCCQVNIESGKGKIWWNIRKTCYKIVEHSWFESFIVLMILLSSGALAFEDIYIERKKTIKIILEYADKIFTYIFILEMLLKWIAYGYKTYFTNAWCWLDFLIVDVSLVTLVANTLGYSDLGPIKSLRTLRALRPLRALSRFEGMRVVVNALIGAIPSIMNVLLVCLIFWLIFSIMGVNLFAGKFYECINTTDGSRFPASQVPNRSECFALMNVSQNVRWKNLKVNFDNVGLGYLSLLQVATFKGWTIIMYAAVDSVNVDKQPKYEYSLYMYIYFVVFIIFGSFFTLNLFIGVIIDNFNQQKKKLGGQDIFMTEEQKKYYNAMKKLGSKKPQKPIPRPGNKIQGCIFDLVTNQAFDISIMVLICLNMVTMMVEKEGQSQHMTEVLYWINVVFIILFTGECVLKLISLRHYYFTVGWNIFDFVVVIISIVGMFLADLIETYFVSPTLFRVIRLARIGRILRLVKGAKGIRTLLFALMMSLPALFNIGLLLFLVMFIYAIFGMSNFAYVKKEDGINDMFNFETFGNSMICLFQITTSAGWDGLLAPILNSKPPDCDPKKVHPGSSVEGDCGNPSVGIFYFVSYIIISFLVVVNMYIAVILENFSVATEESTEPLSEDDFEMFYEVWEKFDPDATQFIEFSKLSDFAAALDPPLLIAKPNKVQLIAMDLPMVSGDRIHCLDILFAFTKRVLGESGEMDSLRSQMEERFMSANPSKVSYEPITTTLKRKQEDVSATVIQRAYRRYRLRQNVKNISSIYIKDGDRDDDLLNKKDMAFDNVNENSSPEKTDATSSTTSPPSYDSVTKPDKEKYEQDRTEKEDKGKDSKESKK

Target: hNav 1.7 (Homo sapiens (Human), UniProt Q15858)
Assay: Electrophysiological evaluation, automated patch clamp IonWorks Quattro (Population Patch Clamp mode)
Assay type: cell-based
Conditions: HEK293A cells stably expressing hNav 1.7/β1/β2; response to second depolarization pulse, pre-pulse potential set to V1/2; read-out: hNav1.7 IC50

Compound: Cn1nccc1[C@H]1CC[C@H](OCc2ccccc2)C[C@@H]1Oc1cc(F)c(S(=O)(=O)Nc2ccncn2)cc1F (relative stereo) [Example 113, 4-{[(1S*,2R*,5S*)-5-(Benzyloxy)-2-(1-methyl-1H-pyrazol-5-yl)cyclohexyl]oxy}-2,5-difluoro-N-(pyrimidin-4-yl)benzenesulfonamide]
- IC50: 1000 nM

Compound: O=S(=O)(Nc1ccncn1)c1cc(F)c(OC2CCCCC2n2ccnc2)cc1F (stereo not drawn) [Example 32, 2,5-Difluoro-4-{[(1S*,2R*)-2-(1H-imidazol-1-yl)cyclohexyl]oxy}-N-(pyrimidin-4-yl)benzenesulfonamide]
- IC50: 1000 nM
